The target in this experiment is Bifunctional ligase/repressor BirA (Escherichia coli (strain K12), UniProt P06709). Briefly: Enzyme Inhibition Assay: Quantitation of BPL catalysed 3H-biotin incorporation into the biotin domain substrate was performed as previously described by Polyak et al, J. Biol. Chem (1999) 274(46) 32847-54. Briefly, the reaction mixture contained: 50 mM Tris HCl pH 8.0, 3 mM ATP, 4.5 uM biotin, 0.5 uM 3H-biotin, 5.5 mM MgCl2, 100 mM KCl, 0.1 mg/mL BSA and 10 uM biotin domain of S. aureus pyruvate carboxylase. The reaction was initiated by the addition of BPL to a final concentration of 4 nM. After 20 minutes at 37 C., 4 uL aliquots of the reaction were spotted onto Whatman paper pre-treated with biotin and trichloroacetic acid. The filters were washed twice with 10% v/v ice-cold trichloroacetic acid and once with ethanol before air-drying. Quantitation of protein-bound radiolabelled biotin was performed by liquid scintillation. One unit of enzyme activity was defined by the amount of BPL required to incorporate 1 nmol of biotin per minute. The IC50 value of each compound was determined.

By UniProt entry, the sequences of proteins in these tests, tags left out.
UniProt P06709, whole entry: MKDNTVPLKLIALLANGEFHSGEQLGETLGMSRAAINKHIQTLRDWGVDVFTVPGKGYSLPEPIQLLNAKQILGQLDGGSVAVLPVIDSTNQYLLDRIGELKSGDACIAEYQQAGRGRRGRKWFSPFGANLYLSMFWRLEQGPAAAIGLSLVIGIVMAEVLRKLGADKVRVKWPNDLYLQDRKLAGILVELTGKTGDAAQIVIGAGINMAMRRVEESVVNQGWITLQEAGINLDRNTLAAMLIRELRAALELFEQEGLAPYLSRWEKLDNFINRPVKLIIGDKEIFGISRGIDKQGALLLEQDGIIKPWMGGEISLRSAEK

As a reminder, the Ki is a measure of affinity in units of concentration, obtained from inhibition or displacement.

The structures appear in SMILES notation.

Turning to `Nc1ncnc2c1ncn2[C@@H]1O[C@H](COP(=O)(O)OCCCCC[C@@H]2SC[C@@H]3NC(=O)N[C@@H]32)[C@@H](O)[C@H]1O`, the Ki came to 420 nM.

(Values after ChEMBL document CHEMBL3639373, “Antimicrobial compounds” (2015).)
